Laboratory results reported in publication PMC10009755, “Discovery and Characterization of BAY-805, a Potent and Selective Inhibitor of Ubiquitin-Specific Protease USP21” (Journal of Medicinal Chemistry, 2023).

Protein sequences, listed by entry. Tags and fused reporters are not part of them. Lines headed by an entry give the natural chain unless they say otherwise; changes in a name come on top.
UniProt O14578, whole entry: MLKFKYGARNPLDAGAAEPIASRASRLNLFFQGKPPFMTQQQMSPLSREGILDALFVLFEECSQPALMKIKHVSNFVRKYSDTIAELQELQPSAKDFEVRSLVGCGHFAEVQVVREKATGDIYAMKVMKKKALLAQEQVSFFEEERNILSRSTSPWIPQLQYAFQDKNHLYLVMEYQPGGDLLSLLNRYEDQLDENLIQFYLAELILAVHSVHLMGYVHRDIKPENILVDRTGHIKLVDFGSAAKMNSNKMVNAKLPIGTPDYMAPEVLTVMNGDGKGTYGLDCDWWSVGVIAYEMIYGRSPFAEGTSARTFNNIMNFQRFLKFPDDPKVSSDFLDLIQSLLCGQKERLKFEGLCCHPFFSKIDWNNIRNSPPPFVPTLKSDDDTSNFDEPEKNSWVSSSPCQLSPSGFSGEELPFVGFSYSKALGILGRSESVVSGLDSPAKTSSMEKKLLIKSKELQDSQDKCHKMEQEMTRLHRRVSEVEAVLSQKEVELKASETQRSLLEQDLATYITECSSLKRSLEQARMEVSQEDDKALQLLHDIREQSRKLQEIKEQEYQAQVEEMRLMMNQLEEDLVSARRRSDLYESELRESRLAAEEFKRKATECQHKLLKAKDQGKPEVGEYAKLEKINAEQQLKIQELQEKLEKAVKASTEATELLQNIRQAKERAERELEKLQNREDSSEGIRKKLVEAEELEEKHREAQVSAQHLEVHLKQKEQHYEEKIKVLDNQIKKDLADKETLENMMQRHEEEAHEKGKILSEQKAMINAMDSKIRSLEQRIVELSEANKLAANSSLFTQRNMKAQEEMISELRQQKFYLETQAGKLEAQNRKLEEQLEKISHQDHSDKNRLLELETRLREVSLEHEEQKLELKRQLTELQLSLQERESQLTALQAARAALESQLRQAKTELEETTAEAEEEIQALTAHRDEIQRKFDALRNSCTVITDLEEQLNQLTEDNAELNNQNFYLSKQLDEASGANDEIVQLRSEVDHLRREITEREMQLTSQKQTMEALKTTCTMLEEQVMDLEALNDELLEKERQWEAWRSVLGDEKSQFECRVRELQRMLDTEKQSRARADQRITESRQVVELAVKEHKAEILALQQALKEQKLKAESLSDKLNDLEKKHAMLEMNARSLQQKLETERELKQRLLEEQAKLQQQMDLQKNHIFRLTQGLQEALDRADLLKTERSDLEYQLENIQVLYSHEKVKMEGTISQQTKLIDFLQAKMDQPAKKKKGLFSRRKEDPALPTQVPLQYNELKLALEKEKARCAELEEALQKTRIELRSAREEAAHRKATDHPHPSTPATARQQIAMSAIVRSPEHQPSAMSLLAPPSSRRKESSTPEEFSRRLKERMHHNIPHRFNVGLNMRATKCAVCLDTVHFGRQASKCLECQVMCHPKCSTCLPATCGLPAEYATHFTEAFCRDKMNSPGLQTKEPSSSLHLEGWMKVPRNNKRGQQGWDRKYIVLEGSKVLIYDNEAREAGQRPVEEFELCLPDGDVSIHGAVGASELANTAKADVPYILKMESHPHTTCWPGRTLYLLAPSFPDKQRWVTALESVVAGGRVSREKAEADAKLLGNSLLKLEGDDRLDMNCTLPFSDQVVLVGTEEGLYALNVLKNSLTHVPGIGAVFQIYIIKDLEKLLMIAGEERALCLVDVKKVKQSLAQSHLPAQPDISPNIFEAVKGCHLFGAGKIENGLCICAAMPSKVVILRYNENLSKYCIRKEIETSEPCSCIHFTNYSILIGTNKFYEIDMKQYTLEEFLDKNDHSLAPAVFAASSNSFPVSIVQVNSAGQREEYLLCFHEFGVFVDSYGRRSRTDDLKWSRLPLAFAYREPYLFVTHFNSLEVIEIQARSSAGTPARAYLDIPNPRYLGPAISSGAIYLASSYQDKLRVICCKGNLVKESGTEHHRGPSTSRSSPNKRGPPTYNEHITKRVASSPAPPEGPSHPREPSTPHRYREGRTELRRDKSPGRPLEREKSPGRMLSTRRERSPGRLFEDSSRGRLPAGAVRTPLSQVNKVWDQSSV
UniProt Q15139: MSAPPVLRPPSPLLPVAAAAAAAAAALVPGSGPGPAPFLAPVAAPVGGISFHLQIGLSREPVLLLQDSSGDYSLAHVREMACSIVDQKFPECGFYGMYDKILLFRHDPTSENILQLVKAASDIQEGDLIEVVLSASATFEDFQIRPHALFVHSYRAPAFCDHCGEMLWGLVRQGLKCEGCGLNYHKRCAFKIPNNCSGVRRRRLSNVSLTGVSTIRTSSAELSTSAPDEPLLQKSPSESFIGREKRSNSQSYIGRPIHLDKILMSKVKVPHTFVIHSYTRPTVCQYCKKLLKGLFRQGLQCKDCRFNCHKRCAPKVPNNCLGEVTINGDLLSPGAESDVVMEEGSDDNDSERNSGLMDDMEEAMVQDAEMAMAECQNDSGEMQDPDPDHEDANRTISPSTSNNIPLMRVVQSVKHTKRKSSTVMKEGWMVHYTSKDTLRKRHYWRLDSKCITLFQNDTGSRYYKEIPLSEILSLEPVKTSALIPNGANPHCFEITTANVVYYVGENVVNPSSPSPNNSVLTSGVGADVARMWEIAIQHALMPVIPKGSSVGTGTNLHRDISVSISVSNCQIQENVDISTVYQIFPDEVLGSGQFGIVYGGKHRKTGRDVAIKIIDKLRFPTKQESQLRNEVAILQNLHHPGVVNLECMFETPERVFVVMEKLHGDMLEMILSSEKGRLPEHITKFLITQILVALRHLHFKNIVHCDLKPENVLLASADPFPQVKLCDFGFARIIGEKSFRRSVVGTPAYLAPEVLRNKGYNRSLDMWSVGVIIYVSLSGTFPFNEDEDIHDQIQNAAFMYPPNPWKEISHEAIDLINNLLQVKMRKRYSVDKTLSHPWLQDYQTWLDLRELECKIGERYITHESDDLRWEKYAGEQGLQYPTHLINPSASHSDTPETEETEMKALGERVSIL
UniProt P62068, whole entry: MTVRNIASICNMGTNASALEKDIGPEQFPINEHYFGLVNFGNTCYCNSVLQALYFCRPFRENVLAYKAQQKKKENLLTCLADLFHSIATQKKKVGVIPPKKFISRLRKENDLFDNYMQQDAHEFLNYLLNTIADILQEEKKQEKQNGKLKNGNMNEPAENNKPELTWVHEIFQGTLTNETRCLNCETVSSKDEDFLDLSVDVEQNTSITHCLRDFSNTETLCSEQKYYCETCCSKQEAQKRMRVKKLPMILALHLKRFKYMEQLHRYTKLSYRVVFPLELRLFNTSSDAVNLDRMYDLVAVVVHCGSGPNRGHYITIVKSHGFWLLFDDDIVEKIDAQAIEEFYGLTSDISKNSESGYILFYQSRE
UniProt Q6PHR2: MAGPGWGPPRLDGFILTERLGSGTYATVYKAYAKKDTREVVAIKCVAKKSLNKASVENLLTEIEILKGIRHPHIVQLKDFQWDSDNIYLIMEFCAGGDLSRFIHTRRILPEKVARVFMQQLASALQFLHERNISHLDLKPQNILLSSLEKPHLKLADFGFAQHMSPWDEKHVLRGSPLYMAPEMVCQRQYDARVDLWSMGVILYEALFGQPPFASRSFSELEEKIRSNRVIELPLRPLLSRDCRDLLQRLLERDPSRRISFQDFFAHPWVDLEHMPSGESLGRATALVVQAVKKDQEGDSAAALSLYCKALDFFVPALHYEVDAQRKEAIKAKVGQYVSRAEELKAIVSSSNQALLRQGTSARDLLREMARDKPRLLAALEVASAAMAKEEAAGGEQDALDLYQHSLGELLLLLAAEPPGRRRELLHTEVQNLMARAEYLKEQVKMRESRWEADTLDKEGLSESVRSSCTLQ
UniProt Q9NYY3: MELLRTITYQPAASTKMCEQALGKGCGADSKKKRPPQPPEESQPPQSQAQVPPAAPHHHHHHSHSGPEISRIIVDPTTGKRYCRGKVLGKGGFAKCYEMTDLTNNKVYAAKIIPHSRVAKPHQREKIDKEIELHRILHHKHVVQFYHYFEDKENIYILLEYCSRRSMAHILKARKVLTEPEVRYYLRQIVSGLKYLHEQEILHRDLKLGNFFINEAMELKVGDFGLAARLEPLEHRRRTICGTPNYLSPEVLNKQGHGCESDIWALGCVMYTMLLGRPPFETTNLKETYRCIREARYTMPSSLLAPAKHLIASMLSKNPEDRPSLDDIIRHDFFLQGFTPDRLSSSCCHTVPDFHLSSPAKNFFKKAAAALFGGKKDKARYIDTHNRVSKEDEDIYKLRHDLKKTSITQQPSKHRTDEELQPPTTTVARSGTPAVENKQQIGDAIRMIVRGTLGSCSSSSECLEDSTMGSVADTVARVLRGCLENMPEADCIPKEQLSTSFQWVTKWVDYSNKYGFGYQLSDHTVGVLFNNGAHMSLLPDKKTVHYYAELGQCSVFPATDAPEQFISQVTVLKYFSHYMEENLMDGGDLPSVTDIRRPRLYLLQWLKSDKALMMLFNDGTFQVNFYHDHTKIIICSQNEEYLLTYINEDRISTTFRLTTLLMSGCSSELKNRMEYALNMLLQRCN
UniProt Q8TDX7: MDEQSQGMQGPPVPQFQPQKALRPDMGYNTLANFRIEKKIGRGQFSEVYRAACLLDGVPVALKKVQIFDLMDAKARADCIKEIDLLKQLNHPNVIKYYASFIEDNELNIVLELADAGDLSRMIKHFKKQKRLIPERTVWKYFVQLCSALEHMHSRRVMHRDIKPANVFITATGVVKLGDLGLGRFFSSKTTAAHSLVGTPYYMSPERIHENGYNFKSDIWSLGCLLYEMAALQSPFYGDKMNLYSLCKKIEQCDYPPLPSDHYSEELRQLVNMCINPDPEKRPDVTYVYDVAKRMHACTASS
UniProt P46663: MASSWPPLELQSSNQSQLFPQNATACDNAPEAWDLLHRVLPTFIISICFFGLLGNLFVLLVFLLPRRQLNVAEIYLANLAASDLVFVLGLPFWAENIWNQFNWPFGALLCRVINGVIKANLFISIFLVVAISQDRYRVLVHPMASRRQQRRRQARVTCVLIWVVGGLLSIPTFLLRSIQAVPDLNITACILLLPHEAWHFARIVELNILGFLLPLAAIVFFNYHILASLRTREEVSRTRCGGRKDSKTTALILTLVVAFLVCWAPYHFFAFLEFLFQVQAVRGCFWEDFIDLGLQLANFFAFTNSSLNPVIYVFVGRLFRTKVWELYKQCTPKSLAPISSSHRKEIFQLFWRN
UniProt O75676: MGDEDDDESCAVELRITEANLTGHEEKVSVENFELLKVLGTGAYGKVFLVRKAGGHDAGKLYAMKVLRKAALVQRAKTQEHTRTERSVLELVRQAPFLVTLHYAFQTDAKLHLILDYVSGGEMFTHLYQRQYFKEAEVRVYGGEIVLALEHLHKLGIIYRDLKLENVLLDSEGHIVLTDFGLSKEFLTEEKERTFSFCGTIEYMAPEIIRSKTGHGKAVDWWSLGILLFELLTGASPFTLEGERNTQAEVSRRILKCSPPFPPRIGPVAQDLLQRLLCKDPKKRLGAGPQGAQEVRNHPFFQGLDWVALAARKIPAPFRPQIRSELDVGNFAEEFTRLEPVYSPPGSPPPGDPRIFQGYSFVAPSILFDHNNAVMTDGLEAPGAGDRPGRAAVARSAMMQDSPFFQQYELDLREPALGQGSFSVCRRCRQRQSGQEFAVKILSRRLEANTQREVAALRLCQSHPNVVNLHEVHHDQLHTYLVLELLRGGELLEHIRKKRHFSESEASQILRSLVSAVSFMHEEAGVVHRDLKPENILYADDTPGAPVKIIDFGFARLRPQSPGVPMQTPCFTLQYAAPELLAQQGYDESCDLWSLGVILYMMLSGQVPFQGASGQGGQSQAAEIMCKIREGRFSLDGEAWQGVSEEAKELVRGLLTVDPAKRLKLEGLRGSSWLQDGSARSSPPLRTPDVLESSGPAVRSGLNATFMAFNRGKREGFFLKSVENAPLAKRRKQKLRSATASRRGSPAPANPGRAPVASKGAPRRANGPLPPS
UniProt Q04759: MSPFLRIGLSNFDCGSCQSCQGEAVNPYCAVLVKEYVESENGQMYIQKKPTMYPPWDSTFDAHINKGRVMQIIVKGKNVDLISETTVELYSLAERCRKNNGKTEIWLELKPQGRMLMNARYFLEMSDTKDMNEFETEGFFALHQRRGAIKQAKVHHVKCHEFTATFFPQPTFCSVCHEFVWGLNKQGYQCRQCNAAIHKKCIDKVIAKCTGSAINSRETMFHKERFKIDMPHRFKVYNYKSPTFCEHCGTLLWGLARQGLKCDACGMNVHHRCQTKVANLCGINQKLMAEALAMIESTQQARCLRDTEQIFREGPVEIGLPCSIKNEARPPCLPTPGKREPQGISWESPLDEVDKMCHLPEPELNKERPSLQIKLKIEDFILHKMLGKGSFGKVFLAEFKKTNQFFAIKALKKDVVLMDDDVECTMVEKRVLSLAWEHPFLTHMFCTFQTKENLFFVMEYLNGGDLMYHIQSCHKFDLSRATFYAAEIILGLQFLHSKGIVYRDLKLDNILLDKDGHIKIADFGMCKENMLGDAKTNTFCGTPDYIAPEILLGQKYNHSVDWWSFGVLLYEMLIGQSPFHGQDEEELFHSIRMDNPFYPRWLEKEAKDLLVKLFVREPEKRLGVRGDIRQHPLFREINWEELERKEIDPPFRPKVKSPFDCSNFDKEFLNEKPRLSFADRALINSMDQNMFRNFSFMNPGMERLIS

Tests used:
Glutamate, Kainate = conditions: 10 µM
Phosphodiesterase PDE4 = conditions: 10 µM
NEK4(h) = NEK4(h) (Homo sapiens, UniProt P51957); experiment: biochemical
CRIK(h) = CRIK(h) (Homo sapiens, UniProt O14578); experiment: biochemical
CYLD = CYLD (Homo sapiens, UniProt Q9NQC7); experiment: biochemical; conditions: read-out: Activity (% Control)
PDHK2(h) = PDHK2(h) (Homo sapiens, UniProt Q15119); experiment: biochemical
Progesterone PR-B = Progesterone PR-B (Homo sapiens, UniProt P06401); experiment: biochemical; conditions: read-out: % Inh.
NUAK2(h) = NUAK2(h) (Homo sapiens, UniProt Q9H093); experiment: biochemical
TLK2(h) = TLK2(h) (Homo sapiens, UniProt Q86UE8); experiment: biochemical
USP19 = USP19 (Homo sapiens, UniProt O94966); experiment: biochemical; conditions: read-out: Activity (% Control)
TrkB(h) = TrkB(h) (Homo sapiens, UniProt Q16620); experiment: biochemical
PKCmu(h) = PKCmu(h) (Homo sapiens, UniProt Q15139); experiment: biochemical
TTK(h) = TTK(h) (Homo sapiens, UniProt P33981); experiment: biochemical
HMG-CoA Reductase = HMG-CoA Reductase (Homo sapiens, UniProt P04035); experiment: biochemical; conditions: read-out: % Inh.
JNK3(h) = JNK3(h) (Homo sapiens, UniProt P53779); experiment: biochemical
USP46/UAF1/WDR20 = USP46/UAF1/WDR20 (Homo sapiens, UniProt P62068); experiment: biochemical; conditions: read-out: Activity (% Control)
EGFR(h) = EGFR(h) (Homo sapiens, UniProt P00533); experiment: biochemical
NDR2(h) = NDR2(h) (Homo sapiens, UniProt Q9Y2H1); experiment: biochemical
ULK3(h) = ULK3(h) (Homo sapiens, UniProt Q6PHR2); experiment: biochemical
Snk(h) = Snk(h) (Homo sapiens, UniProt Q9NYY3); experiment: biochemical
UCHL5 = UCHL5 (Homo sapiens, UniProt Q9Y5K5); experiment: biochemical; conditions: read-out: Activity (% Control)
ULK2(h) = ULK2(h) (Homo sapiens, UniProt Q8IYT8); experiment: biochemical
NEK7(h) = NEK7(h) (Homo sapiens, UniProt Q8TDX7); experiment: biochemical
Hck(h) = Hck(h) (Homo sapiens, UniProt P08631); experiment: biochemical
GSK3alpha(h) = GSK3alpha(h) (Homo sapiens, UniProt P49840); experiment: biochemical
Bradykinin B1 = Bradykinin B1 (Homo sapiens, UniProt P46663); experiment: biochemical; conditions: read-out: % Inh.
ALK1(h) = ALK1(h) (Homo sapiens, UniProt P37023); experiment: biochemical
STK33(h) = STK33(h) (Homo sapiens, UniProt Q9BYT3); experiment: biochemical
STK32B(h) = STK32B(h) (Homo sapiens, UniProt Q9NY57); experiment: biochemical
BMPR2(h) = BMPR2(h) (Homo sapiens, UniProt Q13873); experiment: biochemical
Molm-13 = experiment: cells; conditions: Homo sapiens, MOLM-13, 72 h, read-out: antiproliferative effect
GCN2(h) = GCN2(h) (Homo sapiens, UniProt Q9P2K8); experiment: biochemical
Adrenergic β2 = Adrenergic β2 (Homo sapiens, UniProt P07550); experiment: biochemical; conditions: read-out: % Inh.
CDK16/cyclinY(h) = CDK16/cyclinY(h) (Homo sapiens, UniProt Q00536); experiment: biochemical
MSK2(h) = MSK2(h) (Homo sapiens, UniProt O75676); experiment: biochemical
NDR1(h) = NDR1(h) (Homo sapiens, UniProt Q15208); experiment: biochemical
DCAMKL3(h) = DCAMKL3(h) (Homo sapiens, UniProt Q9C098); experiment: biochemical
SIK2(h) = SIK2(h) (Homo sapiens, UniProt Q9H0K1); experiment: biochemical
IGF-1R(h) = IGF-1R(h) (Homo sapiens, UniProt P08069); experiment: biochemical
PKCtheta(h) = PKCtheta(h) (Homo sapiens, UniProt Q04759); experiment: biochemical
Rsk2(h) = Rsk2(h) (Homo sapiens, UniProt P51812); experiment: biochemical
PKCzeta(h) = PKCzeta(h) (Homo sapiens, UniProt Q05513); experiment: biochemical

CC(C)C[C@H](NC(=O)C1(C(F)(F)F)CCCCC1)C(=O)Nc1nnc(Cc2ccc(C#N)cc2)s1 [Compound 22, CC(C)C[C@H](NC(=O)C1(CCCCC1)C(F)(F)F)C(=O)Nc2nnc(Cc3ccc(cc3)C#N)s2]
% Inh. (Glutamate, Kainate): -5 | % Inh. (Phosphodiesterase PDE4): 1 | inhibition at 10 µM (NEK4(h)): 0.22% | inhibition at 10 µM (CRIK(h)): 6.31% | remaining activity at 1 µM (CYLD): 96% | remaining activity at 10 µM (CYLD): 100% | inhibition at 10 µM (PDHK2(h)): 4.73% | inhibition at 10 µM (Progesterone PR-B): 16% | inhibition at 10 µM (NUAK2(h)): 17.9% | inhibition at 10 µM (TLK2(h)): -2.92% | remaining activity at 1 µM (USP19): 93% | remaining activity at 10 µM (USP19): 96% | inhibition at 10 µM (TrkB(h)): 7.83% | inhibition at 10 µM (PKCmu(h)): -7.74% | inhibition at 10 µM (TTK(h)): 2.5% | inhibition at 10 µM (HMG-CoA Reductase): 1% | inhibition at 10 µM (JNK3(h)): -3.97% | remaining activity at 1 µM (USP46/UAF1/WDR20): 101% | remaining activity at 10 µM (USP46/UAF1/WDR20): 100% | inhibition at 10 µM (EGFR(h)): -21.6% | inhibition at 10 µM (NDR2(h)): -2.71% | inhibition at 10 µM (ULK3(h)): -3.51% | inhibition at 10 µM (Snk(h)): -2.57% | remaining activity at 1 µM (UCHL5): 100% | remaining activity at 10 µM (UCHL5): 147% | inhibition at 10 µM (ULK2(h)): 7.46% | inhibition at 10 µM (NEK7(h)): -1.75% | inhibition at 10 µM (Hck(h)): 4.11% | inhibition at 10 µM (GSK3alpha(h)): -3.55% | inhibition at 10 µM (Bradykinin B1): 23% | inhibition at 10 µM (ALK1(h)): -3.75% | inhibition at 10 µM (STK33(h)): 2.39% | inhibition at 10 µM (STK32B(h)): 10.7% | inhibition at 10 µM (BMPR2(h)): 1.41% | IC50 (Molm-13): > 30 µM | inhibition at 10 µM (GCN2(h)): 4.09% | inhibition at 10 µM (Adrenergic β2): 6% | inhibition at 10 µM (CDK16/cyclinY(h)): 20.8% | inhibition at 10 µM (MSK2(h)): 3.68% | inhibition at 10 µM (NDR1(h)): 3.89% | inhibition at 10 µM (DCAMKL3(h)): 4.5% | inhibition at 10 µM (SIK2(h)): 1.8% | inhibition at 10 µM (IGF-1R(h)): -24.4% | inhibition at 10 µM (PKCtheta(h)): -8.12% | inhibition at 10 µM (Rsk2(h)): 6.09% | inhibition at 10 µM (PKCzeta(h)): -0.09%

CC(C)C[C@@H](NC(=O)C1(C(F)(F)F)CCCCC1)C(=O)Nc1nnc(Cc2ccc(C#N)cc2)s1 [Compound 21, N-[(1R)-1-[[5-[(4-Cyanophenyl)methyl]-1,3,4-thiadiazol-2-yl]carbamoyl]-3-methyl-butyl]-1-(trifluoromethyl)cyclohexanecarboxamide]
% Inh. (Glutamate, Kainate): -7 | % Inh. (Phosphodiesterase PDE4): 1 | inhibition at 10 µM (NEK4(h)): 3.5% | inhibition at 10 µM (CRIK(h)): 5.6% | remaining activity at 1 µM (CYLD): 105% | remaining activity at 10 µM (CYLD): 102% | inhibition at 10 µM (PDHK2(h)): 10.3% | inhibition at 10 µM (Progesterone PR-B): 5% | inhibition at 10 µM (NUAK2(h)): 41% | inhibition at 10 µM (TLK2(h)): 8.77% | remaining activity at 1 µM (USP19): 100% | remaining activity at 10 µM (USP19): 101% | inhibition at 10 µM (TrkB(h)): 10.2% | inhibition at 10 µM (PKCmu(h)): 0.41% | inhibition at 10 µM (TTK(h)): 5.09% | inhibition at 10 µM (HMG-CoA Reductase): 16% | inhibition at 10 µM (JNK3(h)): 8.85% | remaining activity at 1 µM (USP46/UAF1/WDR20): 92% | remaining activity at 10 µM (USP46/UAF1/WDR20): 97% | inhibition at 10 µM (EGFR(h)): -15.6% | inhibition at 10 µM (NDR2(h)): 10.8% | inhibition at 10 µM (ULK3(h)): 5.11% | inhibition at 10 µM (Snk(h)): -1.49% | remaining activity at 1 µM (UCHL5): 108% | remaining activity at 10 µM (UCHL5): 98% | inhibition at 10 µM (ULK2(h)): 8.08% | inhibition at 10 µM (NEK7(h)): 0.69% | inhibition at 10 µM (Hck(h)): 15.3% | inhibition at 10 µM (GSK3alpha(h)): 11% | inhibition at 10 µM (Bradykinin B1): 6% | inhibition at 10 µM (ALK1(h)): 2.39% | inhibition at 10 µM (STK33(h)): 1.36% | inhibition at 10 µM (STK32B(h)): 10.5% | inhibition at 10 µM (BMPR2(h)): 2.11% | IC50 (Molm-13): > 30 µM | inhibition at 10 µM (GCN2(h)): 1.83% | inhibition at 10 µM (Adrenergic β2): 3% | inhibition at 10 µM (CDK16/cyclinY(h)): 2.36% | inhibition at 10 µM (MSK2(h)): 15.2% | inhibition at 10 µM (NDR1(h)): 5.83% | inhibition at 10 µM (DCAMKL3(h)): 4.88% | inhibition at 10 µM (SIK2(h)): 7.78% | inhibition at 10 µM (IGF-1R(h)): -23.6% | inhibition at 10 µM (PKCtheta(h)): -12.6% | inhibition at 10 µM (Rsk2(h)): -2.95% | inhibition at 10 µM (PKCzeta(h)): 6.74%
